Test system: VSVΔ51 in 786-0 cells
Assay: Viral sensitizer activity: VSVΔ51-FLuc output (VEU) by luciferase reporter assay
Assay type: cell-based, human
Settings: at the PFC dose, NE = did not detectably increase viral output

O=C1OCC(Cl)=C1Cl [Compound 5, 3,4-Dichloro-5H-furan-2-one]
Normalized PFC (Peak Fold Change in Viral Expression Unit normalized to VSe1) (listed as compound 5): active

O=C1C(Cl)=C(Cl)C(O)N1Cc1ccccc1 (stereo not drawn) [Compound 10, α,β-dichloro-γ-hydroxy-N-benzyl-crotonic lactam]
Normalized PFC (Peak Fold Change in Viral Expression Unit normalized to VSe1) (listed as compound 10): enhanced viral expression

CC(C)CNC1=C(Cl)C(=O)OC1c1ccccc1 (centres unmarked) [Compound 4]
Normalized PFC (Peak Fold Change in Viral Expression Unit normalized to VSe1) (listed as compound 4): loss of viral enhancement activity

O=C1C(Cl)=C(Cl)C(O)N1CCN1CCOCC1 (centres unmarked) [Compound 28, 3,4-dichloro-5-hydroxy-1-(2-morpholinoethyl)-1H-pyrrol-2(5H)-one]
Normalized PFC (Peak Fold Change in Viral Expression Unit normalized to VSe1) (listed as compound 28): promising activity

O=C1C(Cl)=C(Cl)C(O)N1C1CC1 (centres unmarked) [Compound 25, 3,4-dichloro-1-cyclopropyl-5-hydroxy-1H-pyrrol-2(5H)-one]
Normalized PFC (Peak Fold Change in Viral Expression Unit normalized to VSe1) (listed as compound 25): retained activity

COC1OC(=O)C(Cl)=C1Cl (centres unmarked) [Compound 6]
Normalized PFC (Peak Fold Change in Viral Expression Unit normalized to VSe1) (listed as compound 6): active

O=C1NC(O)C(Cl)=C1Cl (centres unmarked) [Compound 9]
Normalized PFC (Peak Fold Change in Viral Expression Unit normalized to VSe1) (listed as compound 9): enhanced viral expression

O=C1OC(c2ccccc2)C(NCc2ccccc2)=C1Cl (centres unmarked) [Compound 3]
Normalized PFC (Peak Fold Change in Viral Expression Unit normalized to VSe1) (listed as compound 3): loss of viral enhancement activity

— patent US20180305345A1 (priority 2015, published 2018)
